Several values for one entry are separate records, joined by “and”; a condition that tells them apart may be missing. Equal entries are not always repeated.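 Method: 48-hour compound exposure of cells in 96-well plates, five concentrations, linear interpolation of endpoints. GI50: concentration for 50% inhibition of growth. The concentration for full growth arrest is given as TGI.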
Tests used:
Test in all cases: inhibition of tumour cell growth, NCI panel, 48 h
[1] = system: 786-0 renal
[2] = system: A498 renal
[3] = system: A549 NSCLC
[4] = system: ACHN renal
[5] = system: BT-549 breast
[6] = system: CAKI-1 renal
[7] = system: CCRF-CEM leukemia
[8] = system: DU-145 prostate
[9] = system: EKVX NSCLC
[10] = system: HCC-2998 colon
[11] = system: HCT-116 colon
[12] = system: HCT-15 colon
[13] = system: HL-60(TB) leukemia
[14] = system: HOP-62 NSCLC
[15] = system: HOP-92 NSCLC
[16] = system: HS 578T breast
[17] = system: HT29 colon
[18] = system: IGROV1 ovarian
[19] = system: K-562 leukemia
[20] = system: KM12 colon
[21] = system: LOX IMVI melanoma
[22] = system: M14 melanoma
[23] = system: MALME-3M melanoma
[24] = system: MCF7 breast
[25] = system: MDA-MB-231 breast
[26] = system: MDA-MB-435
[27] = system: MDA-N
[28] = system: MOLT-4 leukemia
[29] = system: NCI-H226 lung
[30] = system: NCI-H23 lung
[31] = system: NCI-H322M lung
[32] = system: NCI-H460 lung
[33] = system: NCI-H522 lung
[34] = system: NCI/ADR-RES ovarian
[35] = system: OVCAR-3 ovarian
[36] = system: OVCAR-4 ovarian
[37] = system: OVCAR-5 ovarian
[38] = system: OVCAR-8 ovarian
[39] = system: PC-3 prostate
[40] = system: RPMI-8226 leukemia
[41] = system: RXF 393 renal
[42] = system: SF-268 CNS
[43] = system: SF-295 CNS
[44] = system: SF-539 CNS
[45] = system: SK-MEL-2 melanoma
[46] = system: SK-MEL-28 melanoma
[47] = system: SK-MEL-5 melanoma
[48] = system: SK-OV-3 ovarian
[49] = system: SN12C renal
[50] = system: SNB-19 CNS
[51] = system: SNB-75 CNS
[52] = system: SR leukemia
[53] = system: SW-620 colon
[54] = system: T-47D breast
[55] = system: TK-10 renal
[56] = system: U251 CNS
[57] = system: UACC-257 melanoma
[58] = system: UACC-62 melanoma
[59] = system: UO-31 renal

Structure (SMILES): CC(O)C1/C=C/C=C/C(=O)OC2CC3OC4C5OC5(C)C(O)CC4(COC(=O)C(O)C(C)CCO1)C2(C)C31CO1 (configuration not stated)
- GI50 [1]: 0.127 µM and 0.071 µM
- TGI [1]: 0.602 µM and 0.449 µM
- GI50 [2]: 0.0841 µM and 0.0512 µM
- TGI [2]: 0.248 µM and 0.182 µM
- GI50 [3]: 0.486 µM and 0.251 µM
- TGI [3]: 1.68 µM and 0.686 µM
- GI50 [4]: 0.222 µM and 0.156 µM
- TGI [4]: 1.1 µM and 0.753 µM
- GI50 [5]: 0.0814 µM and 0.0203 µM
- GI50 [6]: 0.694 µM and 0.415 µM
- TGI [6]: 4.54 µM and 1.5 µM
- GI50 [7]: 0.0141 µM
- TGI [7]: 0.453 µM and 0.109 µM
- GI50 [8]: 0.442 µM and 0.216 µM
- TGI [8]: 1.15 µM and 0.623 µM
- GI50 [9]: 0.419 µM and 0.227 µM
- TGI [9]: 1.4 µM and 0.72 µM
- GI50 [10]: 0.0328 µM
- TGI [10]: 0.194 µM
- GI50 [11]: 0.0529 µM and 0.0222 µM
- TGI [11]: 0.14 µM and 0.103 µM
- GI50 [12]: 0.322 µM and 0.165 µM
- TGI [12]: 0.948 µM and 0.711 µM
- GI50 [13]: 0.0545 µM
- GI50 [14]: 0.107 µM and 0.0985 µM
- TGI [14]: 0.608 µM and 0.605 µM
- GI50 [15]: 0.0129 µM
- TGI [15]: 0.0698 µM
- GI50 [16]: 0.0559 µM and 0.0235 µM
- TGI [16]: 0.161 µM and 0.0635 µM
- GI50 [17]: 0.0409 µM
- TGI [17]: 0.272 µM
- GI50 [18]: 0.0562 µM and 0.0137 µM
- TGI [18]: 0.248 µM and 0.06 µM
- GI50 [19]: 0.139 µM
- GI50 [20]: 0.0562 µM
- TGI [20]: 0.211 µM
- GI50 [21]: 0.0163 µM
- TGI [21]: 0.0582 µM
- GI50 [22]: 0.0463 µM and 0.0183 µM
- TGI [22]: 0.0918 µM and 0.0431 µM
- GI50 [23]: 0.0536 µM
- TGI [23]: 0.13 µM
- GI50 [24]: 0.0185 µM
- TGI [24]: 25 µM and 66.4 µM
- GI50 [25]: 0.494 µM and 0.252 µM
- TGI [25]: 1.24 µM and 0.703 µM
- GI50 [26]: 0.0716 µM and 0.0295 µM
- TGI [26]: 0.279 µM and 0.114 µM
- GI50 [27]: 0.077 µM
- TGI [27]: 0.316 µM
- GI50 [28]: 0.00683 µM
- TGI [28]: 0.148 µM
- GI50 [29]: 0.0285 µM
- TGI [29]: 0.093 µM
- GI50 [30]: 0.068 µM
- TGI [30]: 0.259 µM
- GI50 [31]: 0.591 µM and 0.287 µM
- TGI [31]: 3.21 µM and 1.57 µM
- GI50 [32]: 0.0144 µM
- TGI [32]: 0.0429 µM
- GI50 [33]: 0.0056 µM
- TGI [33]: 0.0189 µM
- GI50 [34]: 3.72 µM and 11.4 µM
- TGI [34]: 16 µM and > 100 µM
- GI50 [35]: 0.0677 µM and 0.0147 µM
- TGI [35]: 0.235 µM and 0.0587 µM
- GI50 [36]: 0.0805 µM and 0.127 µM
- TGI [36]: 0.302 µM and 0.559 µM
- GI50 [37]: 0.552 µM and 0.214 µM
- TGI [37]: 1.76 µM and 0.663 µM
- GI50 [38]: 0.178 µM and 0.0574 µM
- TGI [38]: 0.977 µM and 0.273 µM
- GI50 [39]: 0.593 µM and 0.0776 µM
- TGI [39]: 1.38 µM and 0.368 µM
- GI50 [40]: 0.0183 µM
- GI50 [41]: 0.0606 µM and 0.132 µM
- TGI [41]: 0.189 µM and 0.452 µM
- GI50 [42]: 0.139 µM and 0.0852 µM
- TGI [42]: 1.38 µM and 0.507 µM
- GI50 [43]: 0.378 µM and 0.181 µM
- TGI [43]: 0.709 µM and 0.668 µM
- GI50 [44]: 0.0433 µM
- TGI [44]: 0.0869 µM and 0.027 µM
- GI50 [45]: 0.102 µM and 0.0232 µM
- TGI [45]: 0.453 µM and 0.0754 µM
- GI50 [46]: 0.0641 µM and 0.0116 µM
- TGI [46]: 0.141 µM and 0.0448 µM
- GI50 [47]: 0.0305 µM
- TGI [47]: 0.0687 µM and 0.0236 µM
- GI50 [48]: 0.0838 µM and 0.0553 µM
- TGI [48]: 0.524 µM and 0.397 µM
- GI50 [49]: 0.435 µM and 0.201 µM
- TGI [49]: 1.65 µM
- TGI [50]: 0.0313 µM
- GI50 [51]: 0.0608 µM and 0.0327 µM
- TGI [51]: 0.17 µM and 0.0935 µM
- GI50 [52]: 0.0307 µM
- TGI [52]: 3.96 µM and 0.439 µM
- GI50 [53]: 0.166 µM and 0.0196 µM
- GI50 [54]: 0.0392 µM and 0.027 µM
- TGI [54]: 0.133 µM and 0.126 µM
- GI50 [55]: 0.16 µM and 0.0642 µM
- TGI [55]: 1.47 µM and 0.309 µM
- GI50 [56]: 0.0592 µM
- TGI [56]: 0.232 µM and 0.141 µM
- GI50 [57]: 0.0821 µM and 0.0379 µM
- TGI [57]: 0.376 µM and 0.12 µM
- GI50 [58]: 0.0633 µM and 0.0458 µM
- TGI [58]: 0.159 µM and 0.234 µM
- GI50 [59]: 0.525 µM and 1.46 µM
- TGI [59]: 1.42 µM and 5.04 µM

Source: PubChem BioAssay (NCI)
